{"source": "ChEMBL document CHEMBL5154845", "about": "“Dual-acting antitumor agents targeting the A2A adenosine receptor and histone deacetylases: Design and synthesis of 4-(furan-2-yl)-1H-pyrazolo[3,4-d]pyrimidin-6-amine derivatives” (Eur J Med Chem, 2022)", "target": "Adenosine receptor A2a (Homo sapiens, UniProt P29274)", "assay": "Displacement of [3H][…] from human A2AAR incubated for 60 mins by scintillation counter analysis", "data": [{"compound": "Cc1cc(Cn2nnc3c(-c4ccco4)nc(N)nc32)ccc1N", "note": "[VIPADENANT]", "values": [{"measurement": "Ki", "result": 0.79, "unit": "nM"}]}]}
